# Assay results taken from patent publication US12633374B2, “Method for determining efficacy of chemotherapy treatment for a subject” (RNA Diagnostics Inc., priority 2012, dated 2026).
# System: tumour sample
# Assay: Maximal RDI score in tumour biopsies of patients on neo-adjuvant Trastuzumab
# Assay type: in vivo, human
# Settings: after the first cycle, FIG. 17A and 17B
# Procedure: Biopsy samples before and after a treatment dose were obtained from patients undergoing neo-adjuvant therapy with Trastuzumab. RNA was isolated and analyzed using the Agilent Bioanalyzer. Electropherograms were analyzed using the methods 100 and 400 and the maximal RDI score was graphed for each tumour sample at each time-point.
substance,measurement,value
Trastuzumab,RDI values,increased in some patients
